For this experiment, the target named is B/BR/60/08 virus NA (Influenza B virus, UniProt C0LT34). The experiment is classed as biochemical. Conditions: read-out: NA enzyme inhibition assay (mean IC50 ± SD).

Each structure is given as a SMILES string. pIC50: −log10 of the molar value.

One may read the pIC50 as the negative decadic logarithm of the IC50, by convention in mol/L. Take `CCC(CC)O[C@@H]1C=C(C(=O)O)C[C@H](N)[C@H]1NC(C)=O` [Oseltamivir carboxylate, oseltamivir carboxylate]: the pIC50 is 7.79.

For the origin of these results see paper PMC5764337 (PLoS ONE, 2018).
